Amino acid sequences for entries named in this document (tags omitted).
ATP-dependent Clp protease proteolytic subunit (Bacillus subtilis (strain 168)), P80244, UniProt P80244, whole entry, looked up: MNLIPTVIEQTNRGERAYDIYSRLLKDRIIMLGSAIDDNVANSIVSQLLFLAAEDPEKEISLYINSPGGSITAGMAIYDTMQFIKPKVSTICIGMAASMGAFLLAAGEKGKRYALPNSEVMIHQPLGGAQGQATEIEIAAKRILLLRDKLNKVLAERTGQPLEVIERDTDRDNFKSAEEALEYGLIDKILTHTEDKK

# High-throughput results deposited in PubChem by National Center for Advancing Translational Sciences (NCATS).
# ClpP mod: qHTS Assay for Activators of ClpP; 340,000 tested, 1.9% active; Potency, µM (highest dose often 57.5 µM), without a hit: top-dose activity change, negative = active; ATP-dependent Clp protease proteolytic subunit (Bacillus subtilis (strain 168)), P80244; purified B. subtilis ClpP, FRET peptide cleavage, 20 min; AID 651965, 2013; active means well fitted falling curve with a large enough effect; inconclusive means small, poorly fitted or top-dose-only effect; inactive means no such curve, though single readings can be large or run the other way; further: potency means the concentration at half of the fitted maximal effect; the source files actives as falling curves though it sought activators and does not explain the sign; nearly all actives have a fitted effect of over 65% in size
#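 Purified B. subtilis ClpP, 10 microg/mL final in Tris/HCl pH8 with KCl, BSA, glycerol and Tween-20, cleaved an Abz/nitrotyrosine-quenched decapeptide. Fluorescence (ex 320, em 430) was read at 0 and 20 min at room temperature. Delta was normalized to 5.8 microM ADEP and DMSO/no-enzyme controls.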
# Nrf2 inh: Nrf2 pathway inhibition; AID 504444; 360,000 tested, 2.1% active; Potency, µM (top dose mostly 46 µM), for the others: at the highest dose activity change, negative = inhibition, usual class: inhibitors; A549 ARE-Fluc reporter, luciferase luminescence, 18-24 h; further: potency means the concentration at half of the fitted maximal effect; on the % scale 0 is the no-effect control and ±100 the full control effect; nearly all actives have a fitted effect of over 60% in size
#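 Nrf2 activity is the BugLite luminescence, read 15 min after reagent at room temperature, following CellTiter-Fluor cytotoxicity readout (30 min, 37C). Compound titrations were applied for 18-24 h to 5000 A549 ARE_Fluc cells/well in 5% FBS OPTI-MEM.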
# miR-21 reporter: raises the signal of a miR-21 reporter. Potency, µM (highest dose often 38.3 µM), without a hit: top-dose reporter change, positive = more light. 340,000 tested, under 10 active. HeLa miR-21 FLuc reporter, luciferase, 48 h; active = well fitted rising curve with a large enough effect; inconclusive = small, poorly fitted or top-dose-only effect; inactive = no such curve, though single readings can be large or run the other way;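 further: % of control where 0% means no effect; miR-21 action dims this reporter so a rising signal means less miR-21 action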
#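 Luminescence from a firefly luciferase reporter carrying a miR-21 binding site downstream, stably expressed under a CMV promoter in HeLa cells that make miR-21 endogenously, reports miRNA modulation after 48 h compound exposure up to approximately 40uM final.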
# Nrf2 activator: activates Nrf2 signaling | AREc32 ARE-luciferase reporter (MCF7-derived line), luminescence, 24 h | Potency, µM (series often up to 46.1 µM), for the others: at the top dose activation, most hits filed as activators | 410,000 tested, 0.31% active; further: potency means the concentration at half of the fitted maximal effect; % of control where 0% means no effect; nearly all actives have a fitted effect of over 65% in size
#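 Luminescent ARE reporter assay in AREc32_Fluc cells: overnight plating at 37 deg C, 24 hr compound incubation, Steady-Glo added, 30 min RT before reading.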
# A549 viability: A549 cytotoxicity, counter-screen for Nrf2 inhibitors. A549 ARE-Fluc cells, CellTiter-Fluor viability, 18-24 h. Potency, µM (top dose mostly 46 µM), without a hit: at the top dose activity change, negative = cytotoxicity, hits mostly inhibitors. 390,000 tested, 0.16% active. AID 504648; further: potency means the concentration at half of the fitted maximal effect; on the % scale 0 is the no-effect control and ±100 the full control effect
#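 A549 ARE_Fluc cells in 5% FBS OPTI-MEM were exposed to compounds in concentration-response for 18-24 h at 37 deg C. Viability was read by CellTiter-Fluor fluorescence (Ex 405/Em 525) after 30 min, before the luciferase read.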
# p53 reactivation: restores transcriptional activity of mutant p53 | AID 504706 | 320,000 tested, 0.063% active | H1299 p53-A138V BP100-luciferase reporter, luminescence, 24 h | Potency, µM (series often up to 92.2 µM), inactives show at the top dose activity change, positive = activation, actives largely listed as activators; further: potency means the concentration at half of the fitted maximal effect; % of control where 0% means no effect; nearly all actives have a fitted effect of over 45% in size
#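 H1299 (p53-null), stable ts p53-A138V + BP100-Luc; 1000 cells/well, Opti-MEM/10% FBS; cpd 4 pt, 1:5; 24 h, 37 deg C, 5% CO2; detection reagent 10 min RT; luminescence.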
# Active calls of the source: *; ? = inconclusive; . = no result. Compounds with a hit are over-represented: about 3.7% of the library has one in this group of screens. Unless noted, the call rests on the fitted dose curve; in most records, active means well fitted curve in the direction sought with a large enough effect; inconclusive means small, poorly fitted or top-dose-only effect, or another doubt; inactive means no such curve, though single readings can be large; an effect the other way counts as inactive or inconclusive.
# Letter code – A = ClpP mod; B = Nrf2 inh; C = miR-21 reporter; D = Nrf2 activator; E = A549 viability; F = p53 reactivation
structure: Cc1occc1-c1nnc(SCC(=O)c2ccc(F)cc2)n1Cc1ccco1
  A: -1%; B: -20%; C: 1%; D: 0%; E: -5%; F: -10%
structure: COc1cc(C2c3c(oc4ccc(F)cc4c3=O)C(=O)N2Cc2ccc3c(c2)OCO3)ccc1O (stereo not given)
  A: -6%; B: 1%; C: 0%; D: 0%; E: 0%; F: .
structure: COc1cccc(-c2ccc(C3=CC(=O)CC(C)(C)C3=O)cc2)c1OC
  A: 1%; B: .; C: .; D: 15%; E: .; F: .
structure: OC(c1ccc(-c2ccccc2)cc1)c1ncc(-c2ccc(F)cc2)[nH]1 (stereo not given)
  A: 1%; B: .; C: .; D: -1%; E: .; F: .
structure: CCc1ccc(-n2c(=O)c3cccnc3n2CC(=O)N(CC)c2cccc(C)c2)cc1
  A: 4%; B: ?; C: 21%; D: -3%; E: 0%; F: .
structure: O=C1NC(=O)C([N+](=O)[O-])=C(O)C1=O
  A: 3%; B: .; C: .; D: 0%; E: .; F: .
structure: COC(=O)/C=C/c1ccc2c(c1)S(=O)(=O)N(Cc1ccc(OC)cc1)[C@H]2CC(=O)OC
  A: -5%; B: 9%; C: .; D: 18µM*; E: -5%; F: .
structure: CC12CCC=CC1C(c1ccc(F)c(/C=C/c3ccccc3)c1)N(Cc1ccccc1)C2=O (stereo not given)
  A: .; B: 11%; C: .; D: .; E: 13%; F: .
structure: Cc1nn(Cc2ccc(C(=O)NC(C)(C)C)o2)c(C)c1Br
  A: 1%; B: 18µM*; C: 13%; D: 1%; E: -16%; F: -4%
structure: Cc1cc(NC(=O)c2ccc(Cn3nc(C)c(Br)c3C)o2)no1
  A: -2%; B: 9%; C: -5%; D: 3%; E: 5%; F: 0%
structure: CC(C)N(CC#CC(O)(c1ccccc1)c1ccccc1)C(C)C
  A: 32µM*; B: 1%; C: 3%; D: 0%; E: 0%; F: -5%
structure: CC(C)N(CC#CC(O)(c1ccccc1)c1ccccc1)CCO
  A: 10%; B: 4%; C: -9%; D: 0%; E: 1%; F: -5%
structure: Cc1ccc(-n2c3nc(=O)[nH]c(=O)c-3cc3cc([N+](=O)[O-])ccc32)cc1C
  A: .; B: 15µM*; C: -9%; D: 3%; E: ?; F: 15%
structure: CCOC(=O)c1c(C)c(-c2ccccc2)n(CC(=O)NCc2ccccc2)c1C
  A: 1%; B: -18%; C: 2%; D: -1%; E: 0%; F: .
structure: COC1=CC(=O)c2c(ccc3ncnc(N)c23)C1=O
  A: 0%; B: 4.6µM*; C: .; D: -3%; E: 7.3µM*; F: .
structure: Cc1cccc(N2CCN(C(=O)CCN3C(=S)NC(C)(C)CC3C)CC2)c1C (stereo not given)
  A: -1%; B: -24%; C: 5%; D: 0%; E: -6%; F: -1%
structure: Cc1ccc(C)c(N2CCN(C(=O)CCCN3C(=S)NC(C)(C)CC3C)CC2)c1 (stereo not given)
  A: ?; B: 16µM*; C: 21%; D: -1%; E: -5%; F: -3%
structure: CCOc1ccc(NC(=O)CCCN2C(=S)NC(C)(C)CC2C)cc1 (stereo not given)
  A: 28µM*; B: -8%; C: -13%; D: -2%; E: 3%; F: -13%
structure: CC1CC(C)(C)NC(=S)N1CCCC(=O)Nc1ccc(Br)cc1 (stereo not given)
  A: -1%; B: -8%; C: -2%; D: 4%; E: 7%; F: -1%
structure: CC(C)CSc1nnc(-c2ccccc2)c(-c2ccccc2)n1
  A: 0%; B: -11%; C: -4%; D: 4%; E: 8%; F: .
structure: O=C(OC(C(=O)Nc1ccc([N+](=O)[O-])cc1Br)c1ccccc1)c1ccccc1 (stereo not given)
  A: 0%; B: 23µM*; C: -13%; D: 0%; E: 0%; F: 1%
structure: CCCCNC(C(=O)Nc1ccc([N+](=O)[O-])cc1Br)c1ccccc1 (stereo not given)
  A: -9%; B: 12%; C: 8%; D: 0%; E: -4%; F: -7%
structure: CC(C)C(=O)Nc1ccc([N+](=O)[O-])cc1Br
  A: 35µM*; B: -3%; C: -3%; D: 0%; E: 0%; F: -10%
structure: COc1ccc2c(c1)c(/C=C/c1cc[n+](C)cc1)cn2C
  A: -3%; B: 12µM*; C: 29%; D: 8%; E: -1%; F: ?
structure: COC(=O)Cn1cc(/C=C/c2cc[n+](C)cc2)c2ccccc21
  A: 1%; B: -30%; C: 1%; D: 2%; E: ?; F: .
structure: COc1ccc(NC(=S)N2CCN(S(=O)(=O)c3ccc(F)cc3)CC2)cc1
  A: 0%; B: 3%; C: -5%; D: -1%; E: 4%; F: 2%
structure: O=S(=O)(c1ccccc1)N1CCN(C(=S)Nc2ccc(F)cc2)CC1
  A: 20µM*; B: 0%; C: -7%; D: 2%; E: -3%; F: -4%
structure: COc1ccc(S(=O)(=O)N2CCN(C(=S)Nc3ccc(S(N)(=O)=O)cc3)CC2)cc1
  A: 18µM*; B: -3%; C: 0%; D: 0%; E: -1%; F: 3%
structure: COc1ccccc1N1CCN(C(=S)Nc2ccc(S(=O)(=O)N3CCOCC3)cc2)CC1
  A: .; B: ?; C: 16%; D: 3%; E: -18%; F: 1%
structure: O=S(=O)(c1ccc(NC(=S)N2CCN(c3ccccc3F)CC2)cc1)N1CCOCC1
  A: .; B: 13µM*; C: 15%; D: -1%; E: -3%; F: -5%

# A portion taken from the entries so far, for reference:
# Letter code – A = ClpP mod; B = Nrf2 inh; C = miR-21 reporter; D = Nrf2 activator; E = A549 viability; F = p53 reactivation
structure: COc1ccc(NC(=S)N2CCN(S(=O)(=O)c3ccc(F)cc3)CC2)cc1
  A: 0%; B: 3%; C: -5%; D: -1%; E: 4%; F: 2%
structure: O=S(=O)(c1ccccc1)N1CCN(C(=S)Nc2ccc(F)cc2)CC1
  A: 20µM*; B: 0%; C: -7%; D: 2%; E: -3%; F: -4%
structure: COc1ccc(S(=O)(=O)N2CCN(C(=S)Nc3ccc(S(N)(=O)=O)cc3)CC2)cc1
  A: 18µM*; B: -3%; C: 0%; D: 0%; E: -1%; F: 3%
structure: COc1ccccc1N1CCN(C(=S)Nc2ccc(S(=O)(=O)N3CCOCC3)cc2)CC1
  A: .; B: ?; C: 16%; D: 3%; E: -18%; F: 1%

# Continued:
# Letter code – A = ClpP mod; B = Nrf2 inh; C = miR-21 reporter; D = Nrf2 activator; E = A549 viability; F = p53 reactivation
structure: CN(Cc1ccccc1)C(=O)c1ccc(NC(=O)Cc2ccc(NC(=O)C3CCCN(C(=O)C4CC4)C3)cc2)cc1 (stereo not given)
  A: -1%; B: -3%; C: .; D: 1%; E: -2%; F: .
structure: O=C(CCS(=O)(=O)c1cc2c(cc1Cl)NC(=O)CO2)NCCc1ccc(Cl)cc1
  A: 0%; B: ?; C: ?; D: 0%; E: 14%; F: .
structure: O=C(OCc1ccccc1)c1cccc(-c2nnc(-c3ccccc3)o2)c1
  A: 35µM*; B: ?; C: -15%; D: 1%; E: 1%; F: ?
structure: CCOC(=O)c1cc(-c2nnc(-c3ccc(Oc4ccccc4)cc3)o2)c(C)nc1C
  A: 3.2µM*; B: 14%; C: -4%; D: -1%; E: 0%; F: 5%
structure: CC(C)OC(=O)c1ccc(COC(=O)c2cccc(-c3nnc(-c4ccccc4)o3)c2)cc1
  A: ?; B: ?; C: -25%; D: 2%; E: 2%; F: ?
structure: CCOC(=O)c1cccc(COC(=O)c2cccc(-c3nnc(-c4ccccc4)o3)c2)c1
  A: 32µM*; B: ?; C: -64%; D: 0%; E: 6%; F: ?
structure: CCOC(=O)c1cc(C(=O)NN)c(C)nc1C
  A: -4%; B: -6%; C: -2%; D: 0%; E: -4%; F: 1%
structure: O=C(OCc1ccc(C(=O)c2ccccc2)cc1)c1cccc(-c2nnc(-c3ccccc3)o2)c1
  A: -2%; B: 7%; C: -34%; D: 0%; E: -1%; F: 21%
structure: O=S1(=O)CC(N2CCCCC2)CN1CCc1ccccc1 (stereo not given)
  A: -2%; B: .; C: .; D: 0%; E: .; F: .
structure: Cc1ccc(NS(=O)(=O)c2ccc(-c3cc(C)no3)cc2)c(Br)c1
  A: 2%; B: 23µM*; C: 22%; D: 0%; E: 0%; F: .
structure: Cc1cc(-c2ccc(S(=O)(=O)Nc3ccccc3C)cc2)on1
  A: -1%; B: ?; C: 22%; D: 0%; E: 0%; F: .
structure: Cc1cc(-c2ccc(S(=O)(=O)Nc3ccc(Cl)cc3C)cc2)on1
  A: -1%; B: 21µM*; C: 27%; D: 0%; E: -9%; F: .
structure: CCN(CC)C(=O)C(c1ccccc1)S(=O)(=O)N1CCOCC1 (stereo not given)
  A: -4%; B: .; C: .; D: 0%; E: .; F: .
